Measurements published in paper PMC10548170.

Target: NEK7 (UniProt Q8TDX7)
Test: FLAG-M2 bead co-IP, NEK7 blot
Details: reference: FLAG-NLRP3 wild type; sites S198

NLRP3 (from UniProt Q96P20) FLAG-NLRP3 S198A
binding against the reference: weaker
